The results in this text go back to patent US5792799A, “Parenteral delivery of MAO A inhibitors” (Athena Neurosciences, Inc., priority 1996, dated 1998).

One experiment has as its system MAO B. As to the kind of experiment: MAO B activity in mouse striatum, liver and intestine after clorgyline (Example 1). The class given is in vivo, C57BL/6 mice. To be noted: 1 mg/kg, 5 h after dose, liver, intestine. Here is the method: (§1) All experiments were performed in strict accordance with the National Institutes of Health (NIH) Guide for the Care and Use of Laboratory Animals. C57BL/6 mice were housed under constant temperature (22° C.) and humidity conditions in a room illuminated for 12 hours per day, with food and water freely available. Mice (n=5/group) were administered subcutaneously the MAO A inhibitor, clorgyline, at one of the following doses: 0; 0.25; 0.5, 0.6; 0.8; 1.0; or 2.0 mg/kg. Animals were sacrificed five hours after drug administration. Brains were removed, and dissection of the striata was performed within two minutes of cervical dislocation. Tissues were collected in buffer (pH 7.2), sonicated for approximately 10 seconds, and stored at -70° C. Similar procedures were used to collect, homogenize and store samples from the liver and gut of the animals.
(§2) MAO A and MAO B activity were measured as previously described (Yu and Hertz, J. Neurochem. 39:1492-5 (1982)), using 14C-phenylethylamine and 14C-5-hydroxytryptamine as selective substrates for MAO B and MAO A, respectively. Preliminary experiments were performed to ensure that enzyme activity was linear with respect to time and enzyme concentration, and that no more than 10-20% of the substrate was consumed during the incubation period (data not shown). Protein was measured by the method of Lowry et al. (J. Biol. Chem. 193:265-75 (1951)).

A further experiment relates to MAO A. As to the kind of experiment: MAO A activity in mouse striatum, liver and gut after subcutaneous clorgyline (Example 1). To be noted: 0.6 mg/kg s.c., 5 h, actual values nmol/hour/mg protein compared. The class given is in vivo, C57BL/6 mice. Here is the method:
as §1, §2

For `C#CCN(C)CCCOc1ccc(Cl)cc1Cl` [clorgyline], the “difference in MAO B activity compared to mice injected with saline” value in the experiment with MAO B was “No difference”. Moreover, the “MAO A activity in the gut after clorgyline treatment relative to basal striatal MAO activity in untreated animals” value in the experiment with MAO A is listed as “approximately three times greater”.
